Results on one compound are retold here after patent publication US9040673B2, “Synthesis and identification of novel RSK-specific inhibitors” (University of Virginia Patent Foundation, priority 2009, dated 2015).

The chains behind the UniProt entries cited, without tags or fusion partners. Residues count along the entry.
UniProt P51812, 1-397 limits assumed: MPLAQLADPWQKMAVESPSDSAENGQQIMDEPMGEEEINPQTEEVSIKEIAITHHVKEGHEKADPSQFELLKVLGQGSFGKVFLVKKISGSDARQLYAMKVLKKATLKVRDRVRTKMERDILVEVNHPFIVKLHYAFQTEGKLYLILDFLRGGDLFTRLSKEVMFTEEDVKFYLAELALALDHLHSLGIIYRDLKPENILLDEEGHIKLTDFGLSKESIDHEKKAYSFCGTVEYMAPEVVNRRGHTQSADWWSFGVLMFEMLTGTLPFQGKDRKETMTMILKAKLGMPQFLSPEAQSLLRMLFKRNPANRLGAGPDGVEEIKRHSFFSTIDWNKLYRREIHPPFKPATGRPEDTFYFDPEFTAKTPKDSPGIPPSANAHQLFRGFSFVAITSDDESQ

This experiment addresses RSK2 (Homo sapiens, UniProt P51812). Briefly: in vitro kinase assay using recombinant, constitutively active RSK2. As to conditions: inhibitor 5 μM, 5 nM purified kinases, 30 mins, room temperature.

As to `CC(=O)O[C@@H]1[C@@H](OC(C)=O)[C@@H](O)[C@H](Oc2c(-c3ccc(O)cc3)oc3cc(O)cc(O)c3c2=O)O[C@H]1C` [SL0101, kaempferol 3-O-(3″,4″-di-O-acetyl-α-L-rhamnopyranoside)], the “inhibition of RSK2 activity among purified kinases” value is reported as “specifically inhibits RSK2 activity”.
